These results are taken from patent publication US5593656A, “Metal-binding targeted polypeptide constructs” (Cytogen Corporation, priority 1995, dated 1997).

Protein sequences, listed by entry. Tags and fused reporters are not part of them.
UniProt P21729, whole entry: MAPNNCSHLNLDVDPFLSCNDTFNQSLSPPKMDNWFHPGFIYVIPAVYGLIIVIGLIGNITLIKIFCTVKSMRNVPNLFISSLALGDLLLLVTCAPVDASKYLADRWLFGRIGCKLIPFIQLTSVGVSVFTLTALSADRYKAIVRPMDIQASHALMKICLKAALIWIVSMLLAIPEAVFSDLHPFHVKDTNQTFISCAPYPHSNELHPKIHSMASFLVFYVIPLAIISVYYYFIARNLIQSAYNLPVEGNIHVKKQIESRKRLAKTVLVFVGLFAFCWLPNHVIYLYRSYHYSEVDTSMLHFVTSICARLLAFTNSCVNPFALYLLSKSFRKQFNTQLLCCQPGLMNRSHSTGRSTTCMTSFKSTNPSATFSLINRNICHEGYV

The experiment has as its target I-125-GRP binding to NIH-3T3 cells (Mus musculus, UniProt P21729). Briefly: In vitro receptor binding assay: inhibition of binding of I-125-GRP to NIH-3T3 cells. The note with it: 0.45 pM I-125-GRP.

Regarding `CSCC[C@H](NC(=O)[C@H](CC(C)C)NC(=O)[C@H](Cc1c[nH]cn1)NC(=O)CNC(=O)[C@@H](NC(=O)[C@H](C)NC(=O)[C@H](Cc1c[nH]c2ccccc12)NC(=O)[C@H](Cc1c[nH]cn1)NC(=O)[C@H](CC(N)=O)NC(=O)CNC(C)=O)C(C)C)C(=O)NNC(=S)Nc1cc(NC(=S)NNC(=O)[C@H](CCSC)NC(=O)[C@H](CC(C)C)NC(=O)[C@H](Cc2c[nH]cn2)NC(=O)CNC(=O)[C@@H](NC(=O)[C@H](C)NC(=O)[C@H](Cc2c[nH]c3ccccc23)NC(=O)[C@H](Cc2c[nH]cn2)NC(=O)[C@H](CC(N)=O)NC(=O)CNC(C)=O)C(C)C)cc(C(=O)O)c1`, for the setting “1 nm inhibitor”, the “% BOUND” value is given as 4.4%, the “% INHIBITION” value was 26% and the “AVG CPM BOUND” value is recorded as 2,993 CPM. Moreover, where the note is “10 nm inhibitor”, the “% BOUND” value was determined as 3.3%, the “% INHIBITION” value came out at 44% and the “AVG CPM BOUND” value is 2,163 CPM. For the setting “100 nm inhibitor”, the “% BOUND” value came to 1.9%, the “% INHIBITION” value was 68% and the “AVG CPM BOUND” value is 1,264 CPM.
